Test systems include NCI-H322M lung; NCI-H522 lung; RXF 393 renal; HCC-2998 colon; HOP-92 NSCLC; EKVX NSCLC; A498 renal; T-47D breast; M14 melanoma; SK-MEL-2 melanoma; UACC-257 melanoma.
Common to all, as to assay: NCI tumour cell line growth inhibition, 48 h

Molecules are shown by their SMILES.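 Assay format: 96-well plates, 48-hour exposure. GI50 marks 50% less growth. TGI marks complete inhibition of growth.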

In the case of `CCOP1(=O)N=C(NC#N)N(C)C1(C)C` (stereo not drawn), the GI50 in the assay on NCI-H322M lung, with NCI-H522 lung, in the assay on HCC-2998 colon, with HOP-92 NSCLC, in the assay on A498 renal and with T-47D breast was more than 100 µM in each case. Also, the GI50 with M14 melanoma was more than 100 µM. Further, the TGI in the assay on NCI-H322M lung, in the assay with NCI-H522 lung, with RXF 393 renal, in the assay on HCC-2998 colon, in the assay with HOP-92 NSCLC and in the assay with EKVX NSCLC was more than 100 µM each time. Further, the TGI with A498 renal, with T-47D breast, in the assay with M14 melanoma, in the assay on SK-MEL-2 melanoma and with UACC-257 melanoma was more than 100 µM throughout.

For the origin of these results see PubChem BioAssay (NCI).
